Data on one substance can be found in PMC7171691, “Chemical Synthesis, Efficacy, and Safety of Antimalarial Hybrid Drug Comprising of Sarcosine and Aniline Pharmacophores as Scaffolds” (Journal of Tropical Medicine, 2020).

The series in a line: Solubility observations. The class given is physicochemical.

“Also recorded” adds a separate entry of the source.

Regarding 3-chloro-4-(4-chlorophenoxy) aniline, the “Solubility in dimethyl sulfoxide (DMSO)” value (DMSO) is on record as “soluble”. Moreover, the “Solubility in Tween 80” value (Tween 80) was “slightly soluble”. The Solubility in water entry (water) is on record as “very low; also recorded: low water-soluble”.
